Test results: paper PMC3101112 (Cancer Management and Research, 2011)

Tested on: RAF
Test: Biochemical inhibition profile, RAF
Parameters: species or system Human
Details: read-out: Biochemical Inhibition Profile IC50, RAF

- IC50: 19.5 nM
SMILES: CNC(=O)c1cc(Oc2ccc(NC(=O)Nc3ccc(Cl)c(C(F)(F)F)c3)cc2)ccn1 [Sorafenib]
